Assay results published in patent US9145392B2, “Imidazole amines as modulators of kinase activity” (Merck Patent GmbH, priority 2011, dated 2015).

Chains of the proteins cited; added tags and fusions are not shown. Lines headed by an entry give the natural chain unless they say otherwise; changes in a name come on top.
UniProt P31749: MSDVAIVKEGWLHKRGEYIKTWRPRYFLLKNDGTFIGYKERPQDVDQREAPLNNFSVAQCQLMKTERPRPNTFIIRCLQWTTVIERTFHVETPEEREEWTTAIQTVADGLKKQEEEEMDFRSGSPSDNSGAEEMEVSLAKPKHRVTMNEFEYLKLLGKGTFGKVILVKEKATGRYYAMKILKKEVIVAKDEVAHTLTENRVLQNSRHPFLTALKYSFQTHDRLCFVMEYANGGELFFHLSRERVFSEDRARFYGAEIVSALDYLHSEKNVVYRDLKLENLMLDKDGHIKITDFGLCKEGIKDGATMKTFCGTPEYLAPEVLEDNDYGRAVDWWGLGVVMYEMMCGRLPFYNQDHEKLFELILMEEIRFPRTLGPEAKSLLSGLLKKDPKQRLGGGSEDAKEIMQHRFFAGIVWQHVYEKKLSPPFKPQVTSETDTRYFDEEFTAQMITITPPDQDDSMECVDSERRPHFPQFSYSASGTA

Molecular target: His-AKT (Full Length) (Homo sapiens (Human), UniProt P31749)
Test: AKT enzyme assay
Assay type: biochemical
Experimental: A TTP Mosquito liquid handling instrument is used to place 125n1 of the appropriate concentration of inhibitor in 100% DMSO (for a dose response curve calculation) into each well of a 384-well plate.
The reaction is incubated for 90 min at 25 C, and then stopped by the addition of 70 μl of Stop buffer (100 mM HEPES pH 7.5, 0.015% Brij-35, 10 mM EDTA (Sigma, E7889)).
The plate is read on a Caliper LC 3000 in an Off-Chip mobility shift assay format, using the following parameters for a 12-sipper chip: screening pressure −2.3 psi, upstream voltage −500, and downstream voltage −3000. These conditions cause unphosphorylated substrate and phosphorylated product peptide to resolve as separate peaks allowing direct measurement of percentage of conversion of substrate to product. The percent conversion can be plotted against concentration of inhibitor to produce a sigmoidal dose response curve, from which an IC50 can be calculated.

SMILES | IC50 [nM]
CCOc1c(N)ncnc1N1CCC(c2nc(-c3ccc(F)c(Cl)c3)cn2CCN2CCCC2)CC1 [Compound 289] | 2.1
CCc1c(N)ncnc1N1CCC(c2nc(-c3ccnc(C(F)(F)F)c3)cn2CCNC)CC1 [Compound 171, 5-ethyl-6-(4-(1-(2-(methylamino)ethyl)-4-(2-(trifluoromethyl)pyridin-4-yl)-1H-imidazol-2-yl)piperidin-1-yl)pyrimidin-4-amine] | 2.1
